The values that follow come from patent publication US20220267436A1 (NANJING GENSCRIPT BIOTECH, published 2022).

By UniProt entry, the sequences of proteins in these tests, tags left out. Residues count along the entry.
UniProt Q08722, 19-323: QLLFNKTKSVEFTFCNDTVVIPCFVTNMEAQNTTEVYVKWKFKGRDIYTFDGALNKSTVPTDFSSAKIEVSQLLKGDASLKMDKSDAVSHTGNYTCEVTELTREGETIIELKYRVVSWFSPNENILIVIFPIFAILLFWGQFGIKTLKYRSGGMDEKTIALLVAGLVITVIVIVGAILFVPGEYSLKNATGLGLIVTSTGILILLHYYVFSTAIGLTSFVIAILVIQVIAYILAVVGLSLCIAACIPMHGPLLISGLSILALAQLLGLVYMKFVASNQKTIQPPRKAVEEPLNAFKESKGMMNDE

The test concerns the target T1, human CD47 (human, UniProt Q08722 19-323).
T1 construct: whole, on cells; also called CD47 antigen; integrin associated protein
As to the kind of experiment: flow cytometry on CHO-K1 cells expressing human CD47. The protocol: For the constructed series of bispecific antibodies, the affinity of these samples with antigens was measured by using a flow cytometer. […] Then, an antibody-antigen binding curve was generated based on the geometric mean, raw data of four parameters was plotted by using the […] Prism V6.02 software, and a best fitted value program was compiled to analyze EC₅₀.

B1: bispecific antibody LAG3-E-LC (bispecific antibody, human IgG4 S228P, kappa)
heavy: not shown
light: EIVLTQSPATLSLSPGERATLSCRASENVGTYISWYQQKPGQAPRLLIYGASNRYTGIPARFSGSGSGTDFTLTISSLEPEDFAVYYCGESYGHLYTFGGGTKVEIKRTVAAPSVFIFPPSDEQLKSGTASVVCLLNNFYPREAKVQWKVDNALQSGNSQESVTEQDSKDSTYSLSSTLTLSKADYEKHKVYACEVTHQGLSSPVTKSFNRGECEPKSSDKTHTSPPSPEVQLVESGGGLVQPGGSLRLSCAASGYTVSSYCMGWFRQAPGKGREGVSAIDSDGSVSYADSVKGRFTISKDNSKNTLYLQMNSLRAEDTAVYFCAADLCWVDQDQGEYNTWGQGTLVTVSS
notes: Two identical fused chains and two identical natural chains; also called L1 + H0
As for B1, the binding result is on record as “binds”.
